{"source": "patent EP1878438A2", "biological_target": "T1, LH receptors on bovine granulosa cells and bovine small luteal cells (bovine), Q28005", "T1 chain": "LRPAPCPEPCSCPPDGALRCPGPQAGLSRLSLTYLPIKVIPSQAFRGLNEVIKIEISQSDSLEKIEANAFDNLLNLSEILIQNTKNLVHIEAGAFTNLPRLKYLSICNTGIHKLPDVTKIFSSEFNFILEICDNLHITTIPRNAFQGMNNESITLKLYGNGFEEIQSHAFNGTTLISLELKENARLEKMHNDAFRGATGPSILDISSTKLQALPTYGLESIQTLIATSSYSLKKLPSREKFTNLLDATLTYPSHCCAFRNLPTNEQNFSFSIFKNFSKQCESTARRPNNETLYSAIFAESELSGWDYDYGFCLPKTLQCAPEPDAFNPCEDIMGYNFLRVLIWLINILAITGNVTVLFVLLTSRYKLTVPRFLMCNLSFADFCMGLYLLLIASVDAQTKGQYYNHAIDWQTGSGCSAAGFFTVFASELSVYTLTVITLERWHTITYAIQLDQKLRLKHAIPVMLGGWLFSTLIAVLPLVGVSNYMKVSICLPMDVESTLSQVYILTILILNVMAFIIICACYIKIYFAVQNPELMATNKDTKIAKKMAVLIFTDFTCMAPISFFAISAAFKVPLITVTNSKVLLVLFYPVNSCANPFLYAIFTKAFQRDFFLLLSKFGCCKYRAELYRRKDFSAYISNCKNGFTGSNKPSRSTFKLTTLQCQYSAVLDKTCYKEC", "assay": "cell-based or functional assay", "data": [{"binder": "FALALKALKKALKKLKKALKKALSYAVALSCQCALCRR (modifications not checked)", "note": "[hecate-bLH conjugate]", "values": [{"measurement": "cell killing of bovine granulosa cells at 1 µM (fold vs hecate alone)", "result": 2}]}]}
